Data from article PMC7611940, “A Conformation Selective Mode of Inhibiting SRC Improves Drug Efficacy and Tolerability” (Cancer Research, 2021).

How the values were obtained:
Assay in all cases: cells
BT-474 = settings: Homo sapiens, BT-474, 120 h
CAMA-1 = settings: Homo sapiens, CAMA-1, 120 h
HCC-1569 = settings: Homo sapiens, HCC1569, 120 h
HCC-1954 = settings: Homo sapiens, HCC1954, 120 h
JIMT-1 = settings: Homo sapiens, JIMT-1, 120 h
KPL-4 = settings: KPL4, 120 h
BT-549 = settings: Homo sapiens, BT-549, 120 h, read-out: Saracatinib GI50 (in uM)
MCF-7 = settings: Homo sapiens, MCF7, 120 h, read-out: Saracatinib GI50 (in uM)
MDA-MB-134VI = settings: Homo sapiens, MDA-MB-134-VI, 120 h, read-out: Saracatinib GI50 (in uM)
MDA-MB-157 = settings: Homo sapiens, MDA-MB-157, 120 h, read-out: Saracatinib GI50 (in uM)
MDA-MB-231 = settings: Homo sapiens, MDA-MB-231, 120 h, read-out: Saracatinib GI50 (in uM)
MDA-MB-436 = settings: Homo sapiens, MDA-MB-436, 120 h, read-out: Saracatinib GI50 (in uM)
SKBR-3 = settings: Homo sapiens, SK-BR-3, 120 h, read-out: Saracatinib GI50 (in uM)
SUM44PE = settings: 120 h, read-out: Saracatinib GI50 (in uM)
T-47D = settings: Homo sapiens, T47D, 120 h, read-out: Saracatinib GI50 (in uM)
ZR75.1 = settings: Homo sapiens, ZR-75-1, 120 h, read-out: Saracatinib GI50 (in uM)
[1] = read-out: Imatinib GI50 (in uM)
[2] = read-out: Saracatinib GI50 (in uM)

Cc1ccc(NC(=O)c2ccc(CN3CCN(C)CC3)cc2)cc1Nc1nccc(-c2cccnc2)n1 [Imatinib]
GI50 (BT-474; [1]): 8.8 µM | GI50 (CAMA-1; [1]): 8.64 µM | GI50 (HCC-1569; [1]): 8.84 µM | GI50 (HCC-1954; [1]): 4.65 µM | GI50 (JIMT-1; [1]): 8.92 µM | GI50 (KPL-4; [1]): 8.52 µM

CN1CCN(CCOc2cc(OC3CCOCC3)c3c(Nc4c(Cl)ccc5c4OCO5)ncnc3c2)CC1 [saracatinib]
GI50 (BT-474; [2]): 1.05 µM | GI50 (BT-549): 5.07 µM | GI50 (CAMA-1; [2]): 10.3 µM | GI50 (HCC-1569; [2]): 2.81 µM | GI50 (HCC-1954; [2]): 0.568 µM | GI50 (JIMT-1; [2]): 1.33 µM | GI50 (KPL-4; [2]): 5.79 µM | GI50 (MCF-7): 0.398 µM | GI50 (MDA-MB-134VI): 24.9 µM | GI50 (MDA-MB-157): 6.83 µM | GI50 (MDA-MB-231): 0.983 µM | GI50 (MDA-MB-436): 12.6 µM | GI50 (SKBR-3): 4.99 µM | GI50 (SUM44PE): 26.9 µM | GI50 (T-47D): 3.46 µM | GI50 (ZR75.1): 0.248 µM

Like-named read-outs stand apart in the source and are kept apart here.
